# Experimental data from patent US9700546B2, “Trivalent chromium compounds, compositions and methods of use” (INTERHEALTH NUTRACEUTICALS, INC., priority 2006, dated 2017).
# System: Obese Zucker rats
# Assay: In vivo assessment in obese Zucker rats: clinical chemistry (AP, BUN, CRT, AST, ALT)
# Conditions: mean ± SE
Substance,ALT (Alanine Aminotransferease) [u/L],AP (Alkaline phosphatase) [u/L],AST (Aspartate Aminotransferase) [u/L],Anion Gap,BUN (Blood Urea Nitrogen) [mg/dL],CRT (Creatinine) [mg/dL],Total Bilirubin [mg/dL],BUN/CRT Ratio
Chromium Dinicotiante Glutamate [Cr(nic)2Glu],105.57,52.86,176.71,27.00,18.43,0.41,0.10,
Chromium Dinicotinate Argininate [Cr(nic)2Arg],147.33,40.20,241.50,27.60,20.00,0.42,0.00,
Chromium Dinicotinate Aspartate [Cr(nic)2Asp],96.00,53.00,120.33,26.00,18.00,0.42,0.10,45.83
"Chromium Dinicotinate Glycinate [Cr(nic)2Gly, reference compound]",90.83,40.50,176.71,29.43,16.71,0.40,0.10,41.07
Chromium Dinicotinate Phenylalanine [Cr(nic)2Phe],108.00,51.43,135.29,27.71,19.71,0.39,0.10,51.43
Chromium Dinicotinate Tryptophanate [Cr(nic)2Trp],89.29,61.43,149.71,27.14,19.57,0.40,0.09,48.93
